These are literature values, as cited in US11612641B2, “Method for treating Huntingtons's disease” (UNIVERSITY OF IOWA RESEARCH FOUNDATION, priority 2014, dated 2023).

This data set addresses mTOR (Homo sapiens, UniProt P42345). The following applies: including functions resistant to rapamycin (Thoreen et al., 2009); cited from earlier work.

With `CCC(=O)N1CCN(c2ccc(-n3c(=O)ccc4cnc5ccc(-c6cnc7ccccc7c6)cc5c43)cc2C(F)(F)F)CC1` [Torin1], the “inhibition of TOR functions” value is “potently inhibits”.
